Measured values: patent publication US8288406B2, “Hydroxymethylcyclohexylamines” (dated 2012)

The chains behind the UniProt entries cited, without tags or fusion partners. Where a name states a change or a piece, a line headed by the entry shows the natural chain unless it says otherwise.
UniProt P41146: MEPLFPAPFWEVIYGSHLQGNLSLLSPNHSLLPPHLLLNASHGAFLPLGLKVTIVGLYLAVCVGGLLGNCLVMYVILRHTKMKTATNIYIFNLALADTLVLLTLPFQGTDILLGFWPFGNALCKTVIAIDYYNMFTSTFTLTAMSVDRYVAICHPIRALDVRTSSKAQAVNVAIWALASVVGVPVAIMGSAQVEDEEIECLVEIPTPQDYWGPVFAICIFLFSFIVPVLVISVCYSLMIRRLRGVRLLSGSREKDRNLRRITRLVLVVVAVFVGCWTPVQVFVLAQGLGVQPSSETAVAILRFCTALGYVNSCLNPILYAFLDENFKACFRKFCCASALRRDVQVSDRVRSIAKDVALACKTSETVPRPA
UniProt P35372, whole entry, looked up: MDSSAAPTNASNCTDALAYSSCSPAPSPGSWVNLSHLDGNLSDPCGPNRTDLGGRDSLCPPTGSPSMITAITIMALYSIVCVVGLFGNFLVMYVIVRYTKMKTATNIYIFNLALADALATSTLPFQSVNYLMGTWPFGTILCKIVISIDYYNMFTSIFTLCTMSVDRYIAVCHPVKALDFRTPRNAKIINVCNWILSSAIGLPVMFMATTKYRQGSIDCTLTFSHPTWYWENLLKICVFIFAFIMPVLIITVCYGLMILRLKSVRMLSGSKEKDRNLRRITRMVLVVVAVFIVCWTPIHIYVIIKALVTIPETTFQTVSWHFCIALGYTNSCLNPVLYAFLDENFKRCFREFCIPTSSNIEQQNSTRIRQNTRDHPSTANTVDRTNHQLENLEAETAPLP

Key:
ORL1 receptor [1] = target: T1, ORL1 receptor (Homo sapiens, UniProt P41146); test: ORL1 binding: receptor binding assay with 3H-nociceptin/orphanin FQ, membranes from recombinant CHO-ORL1 cells; conditions: 0.5 nM 3H-nociceptin/orphanin FQ; for % inhibition (ORL1) [1 μM]: c=1 μM; for Ki: read-out: Ki (ORL1) mean
human μ opiate receptor [2] = target: T2, human μ opiate receptor (Homo sapiens, UniProt P35372); test: μ binding: [3H]-naloxone displacement, membrane preparation of CHO-K1 cells; conditions: 1 nmol/l [3H]-naloxone; for % inhibition (μ) [1 μM]: 1 μmol/l test substance; for Ki: read-out: Ki (μ) mean, Cheng-Prusoff
[3] = Nephelometric solubility study (phosphate buffer pH 7.4); conditions: for Solubility (pH 7): lower solubility limit, 10 mM phosphate buffer, 1% DMSO, 37° C., 2 h
ORL1 receptor [4] = target: T1, ORL1 receptor; conditions: read-out: Ki (ORL1) mean; data described in the literature (WO 04/043900); cited from earlier work
human μ opiate receptor [5] = target: T2, human μ opiate receptor; conditions: read-out: Ki (μ) mean; data described in the literature (WO 04/043900); cited from earlier work
[6] = system: pain latency (tail flick) in rats; test: Analgesia in the tail flick test in rats; conditions: intravenous, 20 minutes after administration

In the case of CN(C)C1(c2ccccc2)CCC(C(O)Cc2ccc(F)cc2)CC1 (centres unmarked), the “% inhibition (ORL1) [1 μM]” value (ORL1 receptor [1]) is reported as 97% and the “% inhibition (μ) [1 μM]” value (human μ opiate receptor [2]) is reported as 103%.

Work on CN(C)C1(c2ccccc2)CCC(C(O)Cn2ccc3ccccc32)CC1 (centres unmarked) yielded a Ki (ORL1 receptor [1]) of 0.0041 µM and a Ki (human μ opiate receptor [2]) of 0.001 µM.

With CN(C)C1(c2ccccc2)CCC(C(O)CN2Cc3ccccc3C2)CC1 (centres unmarked) the “% inhibition (ORL1) [1 μM]” value (ORL1 receptor [1]) was 71% and the “% inhibition (μ) [1 μM]” value (human μ opiate receptor [2]) was 99%.

In the case of CCCCC1(N(C)C)CCC(C(O)Cc2ccccc2)CC1 (centres unmarked), the Ki (ORL1 receptor [1]) is reported as 0.4 µM and the Ki (human μ opiate receptor [2]) is reported as 0.011 µM.

With COc1cccc(C2(N(C)C)CCC(C(O)Cc3ccccc3)CC2)c1 (centres unmarked) the Ki (ORL1 receptor [1]) was 0.37 µM and the Ki (human μ opiate receptor [2]) was 0.0113 µM.

CN(C)C1(c2ccccc2)CCC(C(O)COc2ccccc2)CC1 (single isomer, unassigned) gave a Ki (ORL1 receptor [1]) of 0.03 µM and a Ki (human μ opiate receptor [2]) of 0.0065 µM.

Work on CN(C)C1(c2cccs2)CCC(C(O)COC2CCCCC2)CC1 (centres unmarked) yielded a Ki (ORL1 receptor [1]) of 0.045 µM and a Ki (human μ opiate receptor [2]) of 0.0046 µM.

For CN(C)C1(c2ccccc2)CCC2(OCCc3c2[nH]c2ccccc32)C(CO)C1 (racemic), the “% inhibition (ORL1) [1 μM]” value (ORL1 receptor [1]) was 80%, the “Solubility (pH 7)” value [3] was 10 μmol/l and the “% inhibition (μ) [1 μM]” value (human μ opiate receptor [2]) was 99%.

Molecule CN(C)C1(c2ccccc2)CCC(C(O)COC2CCCCC2)CC1 (centres unmarked) has a Ki (ORL1 receptor [1]) of 0.091 µM and a Ki (human μ opiate receptor [2]) of 0.012 µM.

In the case of CN(C)C1(c2ccccc2)CCC(C(O)C#Cc2cn(C(=O)OC(C)(C)C)c3ccccc23)CC1 (centres unmarked), the Ki (ORL1 receptor [4]) is listed as 0.73 µM and the Ki (human μ opiate receptor [5]) is listed as 0.086 µM.

With CN(C)C1(c2cccc(F)c2)CCC(C(O)Cc2ccccc2)CC1 (centres unmarked) the “% inhibition (ORL1) [1 μM]” value (ORL1 receptor [1]) was 93% and the “% inhibition (μ) [1 μM]” value (human μ opiate receptor [2]) was 99%.

With CN(C)C1(c2ccccc2)CCC(C(O)Cc2ccccc2)CC1 (single isomer, unassigned) the Ki (ORL1 receptor [1]) was 0.605 µM, the Ki (ORL1 receptor [1]; hydrochloride) was 0.0019 µM and the “TF rat ED50 i.v.” value [6] was 0.0317 mg/kg. For the same molecule, the “Solubility (pH 7)” value [3] was 100 μmol/l, the “better solubility in aqueous media than the compound of Comparison Example 2” value ([3]; relative to Comparison Example 2) was “about 10 fold” and the Ki (human μ opiate receptor [2]) was 2.08 µM. For the same molecule, the Ki (human μ opiate receptor [2]; hydrochloride) was 0.0032 µM.

For CN(C)C1(c2ccccc2)CCC(C(O)COCc2ccccc2)CC1 (centres unmarked), the Ki (ORL1 receptor [1]) was 0.13 µM and the Ki (human μ opiate receptor [2]) was 0.0107 µM.

Like-named read-outs stand apart in the source and are kept apart here.
